Laboratory results from ChEMBL document CHEMBL1144829, “2-Arylbenzoxazoles as novel cholesteryl ester transfer protein inhibitors: optimization via array synthesis” (Bioorg Med Chem Lett, 2008).

Assays:
[1] = target: T1, Cholesteryl ester transfer protein (Homo sapiens, UniProt P11597); assay: Inhibition of human CETP by scintillation proximity assay
T1 sequence (P11597 whole entry): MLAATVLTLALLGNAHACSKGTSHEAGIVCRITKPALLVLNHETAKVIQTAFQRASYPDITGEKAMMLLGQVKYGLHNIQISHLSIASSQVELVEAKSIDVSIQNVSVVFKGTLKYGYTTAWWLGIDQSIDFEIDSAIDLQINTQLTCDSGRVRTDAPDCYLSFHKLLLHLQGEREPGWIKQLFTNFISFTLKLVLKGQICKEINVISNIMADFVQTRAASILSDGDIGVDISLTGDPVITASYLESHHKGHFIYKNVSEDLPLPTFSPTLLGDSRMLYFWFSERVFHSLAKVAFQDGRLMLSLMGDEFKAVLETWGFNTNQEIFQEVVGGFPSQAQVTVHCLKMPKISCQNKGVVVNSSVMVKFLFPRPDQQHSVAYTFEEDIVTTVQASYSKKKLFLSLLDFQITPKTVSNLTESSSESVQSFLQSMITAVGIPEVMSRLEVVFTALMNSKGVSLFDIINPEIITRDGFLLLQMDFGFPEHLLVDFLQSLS

[2] = target: T1, Cholesteryl ester transfer protein; assay: Inhibition of CETP in human whole plasma

IC50 [1]: 3 nM | IC50 [2]: 36 nM
Compound: O[C@H](CN(Cc1cccc(OC(F)(F)C(F)F)c1)c1cccc(Oc2ccccc2)c1)C(F)(F)F
